The text below walks through data of PubChem BioAssay AID2732 (Emory University Molecular Libraries Screening Center, 2010).

Molecules are shown by their SMILES. Only a part is listed here, and it is no random draw. Active and inactive are the calls of the source.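 The calls were made as follows: active = compounds that reduced the stress-induced luciferase reporter signal by more than about 70% of percent inhibition (limit read from the data); inactive = the rest.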

The nature of the experiment: inhibitors of CHOP promoter induction, primary screen, cell-based, unfolded protein response, luciferase reporter (AID 2732).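 Also: 0% = tunicamycin plus vehicle and 100% = wells without tunicamycin.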 The conditions noted are these: CHO-K1 CHOP-promoter luciferase, tunicamycin-induced, 15-18 h; at 10 µM; hits give high values. For orientation: In a reporter assay the amount or activity of a reporter protein is the signal.
By inhibition is commonly meant the change of the read-out against control, counted positive when it falls. Take `O=C(NCC1(N2CCOCC2)CCCCC1)c1cc(=O)[nH]c2ccccc12`: the inhibition was inactive: -40.9%.
On to `COc1ccc(NC2CCN(C(=O)OC(C)(C)C)CC2)cc1`, for which the inhibition is inactive: 0.04%.
With `CN1CCN(CCOC(=O)C(O)(c2ccccc2)c2ccccc2)CC1`, the inhibition is inactive: 17.4%.
With `N#CC1(Nc2ccccc2)CCN(CCc2ccccc2)CC1`, the inhibition was inactive: 15.1%.
The figure for `O=C(NCC1(N2CCCCC2)CCCCC1)c1cccc([N+](=O)[O-])c1` is inactive: 0.42%; for `CC(C)c1ccc(NC2CCN(C(=O)OC(C)(C)C)CC2)cc1` it is inactive: 53.5%.
The same measure for `CN(C)c1cccc(C(=O)NCC2(N3CCCCC3)CCCCC2)c1`: inactive: 1.52%.
On to `COc1ccc(CN(CCCl)CCCl)cc1Cl`, for which the inhibition is inactive: 45%.
Turning to `O=C(OC1CN2CCC1CC2)C1c2ccccc2Oc2ccccc21` (centres undefined), the inhibition is inactive: 33.7%.
As to `N#CC1(Nc2ccccc2)CCN(Cc2ccccc2)CC1`, the inhibition was inactive: -0.49%.
Regarding `CCOC(=O)N1CCC(Nc2ccc(OC)cc2)CC1`, the inhibition was inactive: -6.3%.
The same measure for `O=C(NCC1(N2CCOCC2)CCCCC1)c1cc2ccccc2o1`: inactive: 6.18%; for `COc1ccc(C(=O)NCC2(N3CCCCC3)CCCCC2)c(OC)c1OC`: inactive: -5.98%.
For the molecule `Cc1ccc(OCC(C)C)c(CN(CCCl)CCCl)c1`, the inhibition is inactive: 3.2%.
Consider `COc1ccc(NC2CCN(CCc3ccccc3)CC2)c(OC)c1`, for which the inhibition was inactive: 1.51%.
For the molecule `CCOc1ccc(C)cc1CN(CCCl)CCCl`, the inhibition is inactive: 13.3%.
The figure for `CN(C)c1ccc(C(=O)NCC2(N3CCCCC3)CCCCC2)cc1` is inactive: 27.4%; for `CCN1CCC(Nc2cccc(F)c2)CC1` it is inactive: 12.6%.
`Fc1ccccc1NC1CCN(Cc2ccccc2)CC1`: the inhibition was inactive: 10.9%.
`CCCOc1ccc(C)cc1CN(CCCl)CCCl`: the inhibition is inactive: 32.4%.
The same measure for `COc1cc(OC)cc(C(=O)NCC2(N3CCOCC3)CCCCC2)c1`: inactive: 3.06%.
The same measure for `CCC(CO)(C(=O)OC1CN2CCC1CC2)c1ccccc1` (centres undefined): inactive: 14.2%; for `CC(C)(C)OC(=O)N1CCC(Nc2ccccc2)CC1`: inactive: 10%.
`CCOc1ncccc1C(=O)NCC1(N2CCOCC2)CCCCC1`: the inhibition was inactive: 36.2%.
The same measure for `O=C(OC1CN2CCC1CC2)C1c2ccccc2C=Cc2ccccc21` (centres undefined): inactive: 6.4%; for `N/C(=N\O)c1c(N)no[n+]1[O-]`: inactive: 8.22%.
With `COc1ccc(C(=O)NCC2(N3CCOCC3)CCCCC2)cc1OC`, the inhibition was inactive: 15.9%.
The figure for `c1ccc(CN2CCC(Nc3ccccc3)CC2)cc1` is inactive: -3.99%; for `N#Cc1ccc(C(=O)NCC2(N3CCCCC3)CCCCC2)cc1` it is inactive: 23.7%.
